Measured affinities in a library of Ab-14 light chain variants

Target: peptide PDVDLGDISGINAS, taken from heptad repeat 2 (HR2) of SARS-CoV-2 spike.

Parent: Ab-14, a human scFv built as VH, the linker GGGGSGGGGSGGGGS, VL. Only the CDRs of the light chain vary.
VH: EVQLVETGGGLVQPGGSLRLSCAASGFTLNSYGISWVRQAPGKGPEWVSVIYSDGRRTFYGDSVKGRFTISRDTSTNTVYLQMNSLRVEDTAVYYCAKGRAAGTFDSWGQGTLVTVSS
VL: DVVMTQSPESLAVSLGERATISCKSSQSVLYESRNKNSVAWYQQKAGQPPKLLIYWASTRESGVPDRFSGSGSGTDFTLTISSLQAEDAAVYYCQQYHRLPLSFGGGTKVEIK

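The starting antibody came from a phage panning campaign against this peptide. AAYL50 was designed without a model: most single CDR substitutions and a random sample of double and triple ones. The scFvs were displayed on barcoded MATa yeast, the peptide on MATalpha yeast. After mating in shaken culture at 30 °C for 16 h, diploids were selected and their barcode pairs sequenced. Scores were corrected for input abundance and mapped to Kd with protein pairs of known affinity run in the same pool. There are three technical replicates.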

The parent's light chain CDRs are KSSQSVLYESRNKNSVA, WASTRES, QQYHRLPLS; each variant's own CDRs replace them letter for letter.
Numbers give log10(Kd / nM), so 0 is 1 nM and 3 is 1 µM. Smaller is tighter.
Replicates are averaged; those with no signal do not enter the mean.
"n.d." marks a missing value. The strain was present, yet no cells mated with the target were sequenced in that replicate, which points to weak or no binding.
As a blank, each scFv also met three strains without target: over library AAYL50, 18% of these pairings were detected, typically at 4.19 and seldom below 2.99. Also given: how often the same scFv was detected with the empty control strains, with their mean in brackets.

| CDR-L1 | CDR-L2 | CDR-L3 | replicates, log10 nM | mean log10 Kd (nM) | control signals |
|---|---|---|---|---|---|
| ASNQSVDYESRNKNSVA | WASTRES | QQYHRLPLS | 0.48 0.75 0.86 | 0.70 | 0/9 |
| KSVQSVLYESRNKNIVA | WASTRES | QQPHRLPLS | n.d. n.d. n.d. | n.d. | 1/9 (2.84) |
| KSSQSSLYESRNKNSGA | WASTDES | QQYHRLPLS | n.d. 3.40 n.d. | 3.40 | 0/9 |
| KSSQSVLYESRHKNSVA | AASTRES | CQYHRLPLS | -0.09 0.18 0.10 | 0.07 | 0/9 |
| KSSQSVLYESRNKCSVA | LASTRES | QQYHRLPLD | n.d. 4.07 5.37 | 4.72 | 4/9 (4.77) |
| KSSQSYLYESCNKNSVA | WAATRES | QQYHRLPLS | 1.82 n.d. 3.08 | 2.45 | 1/9 (3.70) |
| KSSQSVLYESRNKNSVA | WISTRES | QQYHRLPLV | 3.99 n.d. 6.23 | 5.11 | 3/9 (4.13) |
| KSCQSVLYESRNKWSVC | WASTRES | QQYHRLPLS | n.d. n.d. n.d. | n.d. | 0/9 |
| KHSQSVLYISRNKNSVA | WISTRES | QQYHRLPLS | n.d. 3.54 n.d. | 3.54 | 3/9 (4.18) |
| KSSQSVLRESRNKHSVC | WASTRES | QQYHRLPLS | n.d. n.d. 3.30 | 3.30 | 2/9 (4.33) |
| KSSQSVLYESRNKNSVQ | WASTRES | QRYHRLPLS | n.d. 3.24 n.d. | 3.24 | 2/9 (3.59) |
| KSSQSVLYISRNKNVVA | WASTRES | QQMHRLPLS | n.d. n.d. n.d. | n.d. | 0/9 |
| KSSQSVLYESRNCNSVA | WAGTRES | QQYHRLPLC | 2.98 2.99 3.04 | 3.00 | 2/9 (4.15) |
| KSSQSVLQESRNKNEVA | WVSTRES | QQYHRLPLS | 2.58 2.68 2.49 | 2.59 | 0/9 |
| KTSQSVLSESHNKNSVA | WASTRES | QQYHRLPLS | 0.16 0.43 0.45 | 0.34 | 1/9 (5.02) |
| KSSQSVLEESRNKNSVA | WASCRES | QQYHRLPRS | 0.89 1.17 0.92 | 0.99 | 1/9 (3.86) |
| MSSQSVLYESRNKNSVD | WASTRES | QEYHRLPLS | n.d. n.d. n.d. | n.d. | 0/9 |
| KSSQSVLYESRNCNSVA | WASTRES | QQYHRLPTS | 0.96 0.98 1.10 | 1.01 | 2/9 (4.43) |
| KSLQAVLYESRNKNSVA | WASTRRS | QQYHRLPLS | 2.93 3.10 3.34 | 3.12 | 2/9 (3.94) |
| KSSQDFLYESTNKNSVA | WASTRES | QQYHRLPLS | 0.48 0.81 0.48 | 0.59 | 1/9 (5.11) |
| NSSDSVLYESRNKNSVA | WASTRES | QQYHRLPLS | 0.86 0.97 0.99 | 0.94 | 1/9 (5.15) |
| KSSNSYLYESRNKNSVA | WASTRSS | QQYHRLPLS | 1.43 2.24 1.36 | 1.68 | 0/9 |
| KSSQSVLYYSRNKNSVA | NASTRES | QQYHRLPLD | 0.06 0.33 0.17 | 0.19 | 2/9 (4.92) |
| KSSQSVLNESRNKNSVA | TASTRES | QQYDRLPLS | 0.40 0.69 0.60 | 0.56 | 4/9 (4.37) |
| KSSQSVLYESRNKNSVF | WHSTRES | QQYKRLPLS | n.d. n.d. n.d. | n.d. | 0/9 |
| KSSFSVLYESRNKNSVA | WASTRES | QQYHRLPLS | n.d. n.d. n.d. | n.d. | 0/9 |
| KSSQSVLYESRNKNSVA | WASWRES | QPYHRLPLS | 1.79 1.82 1.98 | 1.86 | 4/9 (4.19) |
| KSSQSVLYESRIKNKVA | WASTREG | QQYHRLPLS | n.d. 5.70 4.98 | 5.34 | 6/9 (4.45) |
| KSSRSVLYESRNLNSVA | WASTRES | QQYHRLPLY | 0.82 0.91 0.99 | 0.91 | 1/9 (4.99) |
| KSSQNSLYESRNKNSVA | WASTRES | QQYHREPLS | n.d. n.d. n.d. | n.d. | 0/9 |
| KLSQSVLYESRNKNSVA | WAPTRES | QQYHRLPLS | n.d. n.d. n.d. | n.d. | 0/9 |
| KSSQSVLYESRNKNSVA | WCSTRES | QQYHRLPLS | n.d. n.d. n.d. | n.d. | 0/9 |
| KSSQSVLYESENKNSVA | WASTRES | CQYHWLPLS | 4.23 3.38 4.98 | 4.20 | 8/9 (4.63) |
| YSSQSVLYESRNKNSVA | WASTMES | SQYHRLPLS | n.d. 3.87 n.d. | 3.87 | 2/9 (3.41) |
| KSSQSVLYESRNKNSVE | WASTRES | CSYHRLPLS | n.d. n.d. n.d. | n.d. | 1/9 (3.22) |
| KSSQSVLYGSRNKNSVT | WASTREC | QQYHRLPLS | n.d. 4.44 n.d. | 4.44 | 1/9 (5.52) |
| KSSQSKLYESRNKNSVA | PASTRES | QQYHRYPLS | n.d. n.d. n.d. | n.d. | 0/9 |
| KSSQSVLYESRNKNSVA | WATTVES | QQYHRLPMS | n.d. 3.24 n.d. | 3.24 | 0/9 |
| KSSQSVLYEERNKNLVA | WASTRES | QQYHRLPVS | n.d. n.d. n.d. | n.d. | 0/9 |
| KSSQSVLYESRNKNSVA | LLSTRES | QQKHRLPLS | n.d. n.d. n.d. | n.d. | 0/9 |
| KSSRSVDYESRNKNSVA | WASTRES | QQYHRSPLS | 1.73 1.68 1.71 | 1.71 | 3/9 (3.70) |
| KSSQAVLYESRNKNSVA | WASTGES | QQTHRLPLS | n.d. n.d. n.d. | n.d. | 1/9 (3.23) |
| KSSQSVPYESRNKNSVV | WASTRSS | QQYHRLPLS | n.d. n.d. n.d. | n.d. | 1/9 (3.60) |
| KSSQSVLYESRNKNSVA | WMSTRHS | QMYHRLPLS | n.d. n.d. n.d. | n.d. | 1/9 (4.34) |
| KSSQYVLYESMNLNSVA | WASTRES | QQYHRLPLS | n.d. n.d. n.d. | n.d. | 0/9 |
| TSSQSVRYESRNKNSVA | WASTRES | QQYHRLPLS | 2.34 2.45 2.36 | 2.38 | 4/9 (4.69) |
| KSSQSVLYETRNKNSVA | WASTRES | CQYHREPLS | 2.56 2.41 2.46 | 2.48 | 1/9 (3.38) |
| ASSQSVLNESRNKNSVF | WASTRES | QQYHRLPLS | 4.33 n.d. n.d. | 4.33 | 4/9 (3.96) |
| KKSQSVVYESRNVNSVA | WASTRES | QQYHRLPLS | 3.97 n.d. 4.34 | 4.16 | 2/9 (3.20) |

From the AlphaSeq antibody data of Engelhart et al. 2022 (doi:10.1038/s41597-022-01779-4), copy in the FLAb collection.